Experimental findings from patent publication US9266848B2, “4-alkoxy-N-(2-hydroxycarbamoyl-2-piperidinyl-ethyl)-benzamide compounds as selective TACE-inhibitors for the treatment of inflammatory diseases” (GALDERMA RESEARCH & DEVELOPMENT, priority 2009, dated 2016) are described below.

Protein sequences, listed by entry. Tags and fused reporters are not part of them. Residues count along the entry.
UniProt P14780, 94-707, species assumed: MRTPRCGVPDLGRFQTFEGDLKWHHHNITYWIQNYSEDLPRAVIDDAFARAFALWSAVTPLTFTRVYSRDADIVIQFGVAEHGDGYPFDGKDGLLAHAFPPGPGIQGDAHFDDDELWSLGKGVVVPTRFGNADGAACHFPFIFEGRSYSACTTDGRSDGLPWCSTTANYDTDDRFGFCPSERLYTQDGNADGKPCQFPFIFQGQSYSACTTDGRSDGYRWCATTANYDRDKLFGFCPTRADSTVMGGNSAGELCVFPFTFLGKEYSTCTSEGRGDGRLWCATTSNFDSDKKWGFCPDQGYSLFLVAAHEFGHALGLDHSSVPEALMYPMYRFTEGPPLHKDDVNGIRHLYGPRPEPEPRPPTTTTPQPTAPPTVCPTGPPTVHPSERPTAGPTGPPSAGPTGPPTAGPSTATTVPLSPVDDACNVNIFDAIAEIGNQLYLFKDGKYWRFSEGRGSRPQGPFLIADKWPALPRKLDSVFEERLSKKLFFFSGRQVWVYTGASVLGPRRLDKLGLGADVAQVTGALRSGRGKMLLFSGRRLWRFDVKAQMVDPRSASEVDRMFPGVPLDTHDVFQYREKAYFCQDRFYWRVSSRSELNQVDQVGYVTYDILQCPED
UniProt P78536, 215-824 limits assumed: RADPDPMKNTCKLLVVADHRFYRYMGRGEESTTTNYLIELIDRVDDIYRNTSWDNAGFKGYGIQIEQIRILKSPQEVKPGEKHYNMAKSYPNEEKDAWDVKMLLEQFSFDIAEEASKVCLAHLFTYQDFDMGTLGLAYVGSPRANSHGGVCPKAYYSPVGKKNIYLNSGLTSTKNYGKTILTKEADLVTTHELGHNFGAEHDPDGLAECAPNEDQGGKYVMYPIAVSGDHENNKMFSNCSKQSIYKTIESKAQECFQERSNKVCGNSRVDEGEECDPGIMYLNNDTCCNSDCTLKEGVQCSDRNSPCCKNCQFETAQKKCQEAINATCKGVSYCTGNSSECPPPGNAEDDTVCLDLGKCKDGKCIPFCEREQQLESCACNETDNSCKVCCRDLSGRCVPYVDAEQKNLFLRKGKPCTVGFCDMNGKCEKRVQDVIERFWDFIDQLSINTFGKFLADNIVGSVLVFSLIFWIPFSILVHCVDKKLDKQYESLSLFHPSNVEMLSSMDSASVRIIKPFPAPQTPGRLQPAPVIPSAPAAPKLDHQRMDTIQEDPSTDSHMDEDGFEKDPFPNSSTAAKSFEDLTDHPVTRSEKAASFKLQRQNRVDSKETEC
UniProt P08254, 100-477, species assumed: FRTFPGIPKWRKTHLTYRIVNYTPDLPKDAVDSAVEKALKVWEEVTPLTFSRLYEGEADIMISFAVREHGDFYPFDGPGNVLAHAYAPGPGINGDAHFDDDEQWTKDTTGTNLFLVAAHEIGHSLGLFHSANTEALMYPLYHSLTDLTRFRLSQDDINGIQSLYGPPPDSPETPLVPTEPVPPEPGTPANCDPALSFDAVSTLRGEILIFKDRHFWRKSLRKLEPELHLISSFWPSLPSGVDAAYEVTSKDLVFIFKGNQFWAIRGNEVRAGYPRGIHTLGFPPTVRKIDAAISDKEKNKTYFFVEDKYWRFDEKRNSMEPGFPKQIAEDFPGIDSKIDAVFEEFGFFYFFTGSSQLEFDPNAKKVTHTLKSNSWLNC

What all share (assay type): biochemical
Assay [1] has as its target MMP9 (Homo sapiens (Human), UniProt P14780). As to the kind of experiment: Selectivity test MMP9.
Assay [2] deals with TACE enzyme (Homo sapiens, UniProt P78536). As to the kind of experiment: Enzymatic test of TACE inhibition. Here is the method: The substrate is used at 40 μM. […] Test of the Products
Assay [3] concerns the target MMP3 (Homo sapiens (Human), UniProt P08254). Kind of assay: Selectivity test MMP3.

Regarding `Cc1cc(COc2ccc(C(=O)NC[C@@H](C(=O)NO)N3CCCCC3)cc2)c2ccccc2n1` [Example 2, N—((S)-2-hydroxycarbamoyl-2-piperidin-1-yl-ethyl)-4-(2-methylquinolin-4-ylmethoxy)benzamide], the IC50 in assay [1] was over 10 µM.

For `O=C(NC[C@@H](C(=O)NO)N1CCCCC1)c1ccc(OCc2ccnc(-c3ccccc3)c2)cc1` [Example 4, N—((S)-2-hydroxycarbamoyl-2-piperidin-1-yl-ethyl)-4-(2-phenylpyridin-4-ylmethoxy)benzamide], the IC50 in assay [2] (fluorescent substrate 40 μM) was 0.061 µM; in assay [2] (selectivity table), 0.061 µM; in assay [3], over 10 µM. As to `O=C(NC[C@@H](C(=O)NO)N1CCCCC1)c1ccc(OCc2ccncc2)cc1` [Example 5, N—((S)-2-hydroxycarbamoyl-2-piperidin-1-yl-ethyl)-4-(pyridin-4-ylmethoxy)benzamide], in assay [1], the IC50 was over 10 µM. The molecule `O=C(NC[C@@H](C(=O)NO)N1CCCCC1)c1ccc(OCc2ccnc(Br)c2)cc1` [Example 8, 4-(2-bromopyridin-4-ylmethoxy)-N—((S)-2-hydroxycarbamoyl-2-piperidin-1-ylethyl)benzamide] displayed an IC50 in assay [2] (fluorescent substrate 40 μM) of 0.105 µM.

In general, IC50 refers to the point on the concentration scale where inhibition reaches its midpoint.
